Chains of the proteins cited; added tags and fusions are not shown. Lines headed by an entry give the natural chain unless they say otherwise; changes in a name come on top.
UniProt P33033: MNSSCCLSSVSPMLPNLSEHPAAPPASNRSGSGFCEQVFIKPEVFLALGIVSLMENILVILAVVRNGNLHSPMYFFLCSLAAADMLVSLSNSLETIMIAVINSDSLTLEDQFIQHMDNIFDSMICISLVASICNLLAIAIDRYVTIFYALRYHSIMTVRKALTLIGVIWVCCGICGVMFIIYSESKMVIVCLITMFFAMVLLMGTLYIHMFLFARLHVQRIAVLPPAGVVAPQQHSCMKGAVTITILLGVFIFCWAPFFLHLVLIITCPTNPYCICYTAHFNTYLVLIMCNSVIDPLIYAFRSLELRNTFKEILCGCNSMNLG
UniProt P56450, whole entry: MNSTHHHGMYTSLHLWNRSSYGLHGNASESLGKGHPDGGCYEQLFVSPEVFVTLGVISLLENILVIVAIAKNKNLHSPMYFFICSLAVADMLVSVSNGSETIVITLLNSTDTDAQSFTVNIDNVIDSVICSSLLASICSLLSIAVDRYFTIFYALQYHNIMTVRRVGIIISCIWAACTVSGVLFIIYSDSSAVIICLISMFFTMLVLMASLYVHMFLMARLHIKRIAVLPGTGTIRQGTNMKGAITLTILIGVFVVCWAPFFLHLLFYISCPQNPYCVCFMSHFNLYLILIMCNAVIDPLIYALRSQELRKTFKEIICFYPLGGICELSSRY
UniProt Q01727: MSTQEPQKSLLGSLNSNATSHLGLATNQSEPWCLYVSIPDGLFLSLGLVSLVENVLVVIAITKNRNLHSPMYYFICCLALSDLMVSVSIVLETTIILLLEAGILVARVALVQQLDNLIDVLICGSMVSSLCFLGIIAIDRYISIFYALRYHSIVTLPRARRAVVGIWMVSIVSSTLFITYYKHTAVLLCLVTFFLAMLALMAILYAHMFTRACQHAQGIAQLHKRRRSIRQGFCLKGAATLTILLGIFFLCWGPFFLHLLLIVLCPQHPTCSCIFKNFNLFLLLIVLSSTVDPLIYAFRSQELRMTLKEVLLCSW

According to PMC10631449 (Journal of medicinal chemistry, 2023):

Key:
mMC3R = mMC3R (Mus musculus, UniProt P33033); settings: hek293 cells
mMC4R = mMC4R (Mus musculus, UniProt P56450); settings: for pA2 mMC4R: hek293 cells
mMC1R = mMC1R (Mus musculus, UniProt Q01727); settings: antagonist potency

| Structure (SMILES) | pA2 mMC3R (mMC3R) | selectivity for the mMC4R over the other receptors (mMC4R) | pA2 mMC4R (mMC4R) | selectivity for the mMC1R over the mMC3R, mMC4R, and mMC5R (mMC1R) |
| --- | --- | --- | --- | --- |
| CC(=O)N[C@H](Cc1ccc(I)cc1)C(=O)N[C@@H](CCCNC(=N)N)C(=O)N[C@@H](Cc1ccc2ccccc2c1)C(=O)N[C@@H](CCCNC(N)=O)C(N)=O [Peptide 20, Ac-DPhe(pI)-Arg-Nal(2’)-Cit-NH2] | 6.8±0.3 | at least 10 fold | 8.5±0.2 | – |
| CC(=O)N[C@H](Cc1ccc(I)cc1)C(=O)N[C@@H](CCCN)C(=O)N[C@@H](Cc1ccc2ccccc2c1)C(=O)N[C@@H](CCCNC(=N)N)C(N)=O [Peptide 4, Ac-DPhe(pI)-Orn-Nal(2’)-Arg-NH2] | <5.5 | – | 7.0±0.2 | – |
| CC(=O)N[C@H](Cc1ccc(I)cc1)C(=O)N[C@@H](CCC(=O)O)C(=O)N[C@@H](Cc1ccc2ccccc2c1)C(=O)N[C@@H](CCCNC(=N)N)C(N)=O [Peptide 11, Ac-DPhe(pI)-Glu-Nal(2’)-Arg-NH2] | <5.5 | – | <5.5 | – |
| CC(=O)N[C@H](Cc1ccc(I)cc1)C(=O)N[C@@H](Cc1c[nH]cn1)C(=O)N[C@@H](Cc1ccc2ccccc2c1)C(=O)N[C@@H](CCCNC(=N)N)C(N)=O [Peptide 2, Ac-DPhe(pI)-His-Nal(2’)-Arg-NH2] | – | – | 7.0±0.2 | – |
| CC(=O)N[C@H](Cc1ccc(I)cc1)C(=O)N[C@@H](CCCNC(=N)N)C(=O)N[C@@H](Cc1ccc2ccccc2c1)C(=O)N[C@@H](CCCCNC(=N)N)C(N)=O [Peptide 17, Ac-DPhe(pI)-Arg-Nal(2’)-hArg-NH2] | 7.7±0.5 | – | 8.2±0.2 | – |
| CC(=O)N[C@H](Cc1ccc(I)cc1)C(=O)N[C@@H](CCCNC(N)=O)C(=O)N[C@@H](Cc1ccc2ccccc2c1)C(=O)N[C@@H](CCCNC(=N)N)C(N)=O [Peptide 10, Ac-DPhe(pI)-Cit-Nal(2’)-Arg-NH2] | – | – | 6.5±0.3 | – |
| CC(=O)N[C@H](Cc1ccc(I)cc1)C(=O)N[C@@H](CN)C(=O)N[C@@H](Cc1ccc2ccccc2c1)C(=O)N[C@@H](CCCNC(=N)N)C(N)=O [Peptide 6, Ac-DPhe(pI)-Dap-Nal(2’)-Arg-NH2] | <5.5 | – | 5.8±0.2 | at least 10 fold |
| CC(=O)N[C@H](Cc1ccc(I)cc1)C(=O)N[C@H](CCCCN)C(=O)N[C@@H](Cc1ccc2ccccc2c1)C(=O)N[C@@H](CCCNC(=N)N)C(N)=O [Peptide 9, Ac-DPhe(pI)-DLys-Nal(2’)-Arg-NH2] | <5.5 | – | <5.5 | – |
| CC(=O)N[C@H](Cc1ccc(I)cc1)C(=O)N[C@@H](CCCNC(=N)N)C(=O)N[C@@H](Cc1ccc2ccccc2c1)C(=O)N[C@@H](Cc1c[nH]cn1)C(N)=O [Peptide 12, Ac-DPhe(pI)-Arg-Nal(2’)-His-NH2] | 7.0±0.1 | – | 7.8±0.3 | – |
| CC(=O)N[C@H](Cc1ccc(I)cc1)C(=O)N[C@@H](CCCCN)C(=O)N[C@@H](Cc1ccc2ccccc2c1)C(=O)N[C@@H](CCCNC(=N)N)C(N)=O [Peptide 3, Ac-DPhe(pI)-Lys-Nal(2’)-Arg-NH2] | – | at least 10 fold | 8.1±0.1 | – |
| CC(=O)N[C@H](Cc1ccc(I)cc1)C(=O)N[C@H](CCCNC(=N)N)C(=O)N[C@@H](Cc1ccc2ccccc2c1)C(=O)N[C@@H](CCCNC(=N)N)C(N)=O [Peptide 8, Ac-DPhe(pI)-DArg-Nal(2’)-Arg-NH2] | <5.5 | – | – | – |
| CC(=O)N[C@H](Cc1ccc(I)cc1)C(=O)N[C@@H](CCCNC(=N)N)C(=O)N[C@@H](Cc1ccc2ccccc2c1)C(=O)N[C@@H](CN)C(N)=O [Peptide 16, Ac-DPhe(pI)-Arg-Nal(2’)-Dap-NH2] | 7.3±0.4 | – | 8.1±0.1 | – |
| CC(=O)N[C@H](Cc1ccc(I)cc1)C(=O)N[C@@H](CCCNC(=N)N)C(=O)N[C@@H](Cc1ccc2ccccc2c1)C(=O)N[C@@H](CCCNC(=N)N)C(N)=O [Peptide 1] | – | at least 10 fold | – | – |
| CC(=O)N[C@H](Cc1ccc(I)cc1)C(=O)N[C@@H](CCCNC(=N)N)C(=O)N[C@@H](Cc1ccc2ccccc2c1)C(=O)N[C@@H](CCN)C(N)=O [Peptide 15, Ac-DPhe(pI)-Arg-Nal(2’)-Dab-NH2] | 7.8±0.1 | at least 10 fold | 8.8±0.1 | – |
